One compound from ChEMBL document CHEMBL4480409, “SGC-GAK-1: A Chemical Probe for Cyclin G Associated Kinase (GAK)” (J Med Chem, 2019) can be followed below.

What is called Kd is the equilibrium constant for the complex coming apart. Low values mean higher affinity, high ones lower affinity. For orientation: IC50 means the concentration that gives 50% inhibition. High values mean weaker potency in that assay, low ones greater potency in that assay.

The target of assay [1] is T1, Cyclin-G-associated kinase (Homo sapiens, UniProt O14976).
T1 sequence (O14976 whole entry): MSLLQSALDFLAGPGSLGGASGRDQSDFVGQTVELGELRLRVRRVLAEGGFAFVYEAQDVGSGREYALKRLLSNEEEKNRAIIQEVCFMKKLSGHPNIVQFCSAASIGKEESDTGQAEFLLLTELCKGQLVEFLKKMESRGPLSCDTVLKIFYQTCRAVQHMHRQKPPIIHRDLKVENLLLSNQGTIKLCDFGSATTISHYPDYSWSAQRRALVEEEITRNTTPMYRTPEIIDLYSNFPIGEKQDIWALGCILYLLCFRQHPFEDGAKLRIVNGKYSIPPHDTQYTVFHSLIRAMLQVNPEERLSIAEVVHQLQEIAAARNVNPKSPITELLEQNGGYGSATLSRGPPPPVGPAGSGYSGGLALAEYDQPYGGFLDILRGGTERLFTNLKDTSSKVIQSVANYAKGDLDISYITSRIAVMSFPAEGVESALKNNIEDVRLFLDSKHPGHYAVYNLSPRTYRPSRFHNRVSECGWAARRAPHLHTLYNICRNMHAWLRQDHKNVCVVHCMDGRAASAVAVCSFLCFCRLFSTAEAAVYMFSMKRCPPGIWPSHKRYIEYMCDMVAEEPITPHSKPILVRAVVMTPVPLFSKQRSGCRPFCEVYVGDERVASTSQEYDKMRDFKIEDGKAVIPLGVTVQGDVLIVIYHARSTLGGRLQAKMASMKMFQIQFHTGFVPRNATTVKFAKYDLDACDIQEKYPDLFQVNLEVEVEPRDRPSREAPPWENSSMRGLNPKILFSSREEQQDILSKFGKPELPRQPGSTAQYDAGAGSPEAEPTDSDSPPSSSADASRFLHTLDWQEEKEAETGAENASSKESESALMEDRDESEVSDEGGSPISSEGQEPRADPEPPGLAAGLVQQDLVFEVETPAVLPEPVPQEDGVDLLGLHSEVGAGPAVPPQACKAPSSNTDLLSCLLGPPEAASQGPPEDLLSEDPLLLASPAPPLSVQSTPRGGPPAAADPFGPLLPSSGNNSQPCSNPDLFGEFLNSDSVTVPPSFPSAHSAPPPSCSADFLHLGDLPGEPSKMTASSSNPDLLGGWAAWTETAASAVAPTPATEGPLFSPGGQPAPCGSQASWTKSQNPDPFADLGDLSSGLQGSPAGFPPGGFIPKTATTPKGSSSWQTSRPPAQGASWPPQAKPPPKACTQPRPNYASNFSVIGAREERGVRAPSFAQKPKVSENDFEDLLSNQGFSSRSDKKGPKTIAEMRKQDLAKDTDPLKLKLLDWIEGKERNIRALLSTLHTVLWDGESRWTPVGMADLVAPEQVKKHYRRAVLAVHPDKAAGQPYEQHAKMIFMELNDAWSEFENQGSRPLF
The experiment in a line: Binding affinity to biotinylated human GAK (13 to 338 residues) expressed in Escherichia coli incubated for 1.5 hrs by fluorescent tracer dependent TR-FRET based competitive ligand binding displacement assay. A general note: TR-FRET usually uses a lanthanide donor and a delayed reading to cut background.

In assay [2] the target is T1, Cyclin-G-associated kinase. Put plainly: Displacement of fluorescent tracer from N-terminus of human GAK expressed in HEK293T cells after 2 hrs by NanoBRET target engagement assay. In kind it is cell-based.
Assay [3] addresses T1, Cyclin-G-associated kinase. The experiment in a line: Binding affinity to GAK (unknown origin) by ITC assay. Background: Isothermal titration calorimetry measures the heat released or taken up as one component is titrated into another.

As for `COc1cc(Nc2ccnc3ccc(Br)cc23)cc(OC)c1OC`, the figures for the Kd in assay [1] and in assay [3] were 1.9 nM and 4.5 nM, respectively. Also, the IC50 in assay [2] turned out to be 120 nM.
